Literature values as cited in patent US20090119801A1, “Method for preserving cut flowers, cut flower preservation kit, method for manufacturing processed cut flowers, and processed cut flowers” (SUNTORY FLOWERS LIMITED, priority 2007, published 2009).

Conditions: logP; cited from earlier work

2-butanol
partition coefficient: 0.691
